Measurements as given in ChEMBL document CHEMBL2163313, “Shape-based reprofiling of FDA-approved drugs for the H₁ histamine receptor” (J Med Chem, 2012).

The chains behind the UniProt entries cited, without tags or fusion partners.
UniProt P31390, whole entry: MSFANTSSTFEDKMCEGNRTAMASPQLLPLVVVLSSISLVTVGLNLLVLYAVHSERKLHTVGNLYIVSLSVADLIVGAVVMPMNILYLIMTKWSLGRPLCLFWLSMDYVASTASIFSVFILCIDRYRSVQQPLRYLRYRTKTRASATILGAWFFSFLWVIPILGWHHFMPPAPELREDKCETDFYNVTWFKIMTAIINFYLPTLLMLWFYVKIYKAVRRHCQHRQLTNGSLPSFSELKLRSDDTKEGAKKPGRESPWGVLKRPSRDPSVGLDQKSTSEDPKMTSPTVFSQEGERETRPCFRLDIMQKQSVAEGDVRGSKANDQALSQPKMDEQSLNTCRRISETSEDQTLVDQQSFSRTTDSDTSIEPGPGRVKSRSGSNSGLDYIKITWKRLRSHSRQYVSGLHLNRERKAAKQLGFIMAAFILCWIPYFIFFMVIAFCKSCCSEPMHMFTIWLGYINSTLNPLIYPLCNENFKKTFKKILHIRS

Target: Histamine H1 receptor (Rattus norvegicus, UniProt P31390)
Assay type: cell membranes, Sprague-Dawley, Brain, Membrane

Row | Compound | IC50 [nM]
1 | Cc1ccccc1C(OCCN(C)C)c1ccccc1 (stereo not drawn) [ORPHENADRINE] | 162
2 | COc1ccc(CN(CCN(C)C)c2ccccn2)cc1 [PYRILAMINE] | 5.75
3 | CN(C)CCCN1c2ccccc2Sc2ccccc21 [PROMAZINE] | 1260
